Consider seven compounds from US11292783B2, “Substituted 1,2,3,4-tetrahydroisoquinolines as kappa opioid antagonists” (Research Triangle Institute, priority 2016, dated 2022).

By UniProt entry, the sequences of proteins in these tests, tags left out. Where a name states a change or a piece, a line headed by the entry shows the natural chain unless it says otherwise.
UniProt P35372, whole entry: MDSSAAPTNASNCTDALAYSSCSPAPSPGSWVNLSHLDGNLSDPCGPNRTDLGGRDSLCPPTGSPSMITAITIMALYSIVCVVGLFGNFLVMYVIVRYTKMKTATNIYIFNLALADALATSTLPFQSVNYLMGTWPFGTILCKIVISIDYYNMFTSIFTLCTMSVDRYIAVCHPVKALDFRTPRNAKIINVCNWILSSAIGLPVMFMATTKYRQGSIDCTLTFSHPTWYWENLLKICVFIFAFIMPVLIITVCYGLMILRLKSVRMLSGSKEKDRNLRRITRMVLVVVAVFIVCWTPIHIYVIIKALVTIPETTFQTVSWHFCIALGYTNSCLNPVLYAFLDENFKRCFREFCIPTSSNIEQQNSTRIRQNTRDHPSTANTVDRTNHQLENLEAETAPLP
UniProt P41145: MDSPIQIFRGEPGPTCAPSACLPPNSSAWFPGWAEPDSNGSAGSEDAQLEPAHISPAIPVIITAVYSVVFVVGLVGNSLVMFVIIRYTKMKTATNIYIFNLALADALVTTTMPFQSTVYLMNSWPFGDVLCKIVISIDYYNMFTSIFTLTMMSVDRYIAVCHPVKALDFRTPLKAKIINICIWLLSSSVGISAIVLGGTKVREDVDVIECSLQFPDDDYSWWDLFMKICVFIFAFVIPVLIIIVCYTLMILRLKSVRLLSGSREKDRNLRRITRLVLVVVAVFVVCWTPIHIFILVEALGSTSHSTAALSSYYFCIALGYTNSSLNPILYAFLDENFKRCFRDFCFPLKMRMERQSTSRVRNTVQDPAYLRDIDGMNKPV

Common to all, as to assay type: biochemical
For one test, the target named is T1, μ opioid receptor (Homo sapiens, UniProt P35372).
T1 construct: expressed in transfected cells
Nature of the test: Inhibition of DAMGO-stimulated [35S]GTPγS binding. Particulars: cloned human μ receptor, agonist DAMGO, read-out: μ, DAMGO Ke. In general terms: GTPγS resists hydrolysis and so accumulates on activated G proteins.

The next test deals with T2, δ opioid receptor (Homo sapiens, UniProt P41143).
T2 construct: expressed in transfected cells
In words: Inhibition of DPDPE-stimulated [35S]GTPγS binding. Particulars: cloned human δ receptor, agonist DPDPE, read-out: δ, DPDPE Ke.

For a further test, the target named is T3, κ opioid receptor (Homo sapiens, UniProt P41145).
T3 construct: expressed in transfected cells
In words: Inhibition of U69,593-stimulated [35S]GTPγS binding. To be noted: for δ/κ (selectivity for κ relative to δ): ratio of Ke values δ/κ; for δ/κ (selectivity for κ relative to δ) / μ/κ (selectivity for κ relative to μ): fold; for μ/κ (selectivity for κ relative to μ): ratio of Ke values μ/κ.

A value given as a limit tells only on which side of the number the result lay.

In the case of `CC(C)[C@@H](CC1CCCCCC1)NC(=O)[C@H]1Cc2ccc(O)cc2CN1` [Compound 41, (3R)—N-[(1R)-1-(Cycloheptylmethyl)-2-methylpropyl]-7-hydroxy-1,2,3,4-tetrahydroisoquinoline-3-carboxamide], the results for the Kb at μ opioid receptor and at δ opioid receptor were 58.3 ± 4.2 nM and 751 ± 80 nM, respectively.

On to `CC(C)[C@@H](CC1CCCC1)NC(=O)[C@H]1Cc2ccc(C(N)=O)cc2CN1` [Compound 61, (3R)—N^3-[(1R)-1-(Cyclopentylmethyl)-2-methylpropyl]-1,2,3,4-tetrahydroisoquinoline-3,7-dicarboxamide], for which the Kb is 209 ± 27 nM at μ opioid receptor and 2540 ± 160 nM at δ opioid receptor.

Regarding `CC1=C(C)CN(C[C@@H](NC(=O)[C@H]2Cc3ccc(O)cc3CN2)C(C)C)CC1` [Compound 31, (3R)—N-{(1S)-1-[(4,5-dimethyl-3,6-dihydropyridin-1(2H)-yl)methyl]-2-methylpropyl}-7-hydroxy-1,2,3,4-tetrahydroisoquinoline-3-carboxamide], the Kb on μ opioid receptor was 1.09 ± 0.11 nM; on δ opioid receptor, 1930 ± 330 nM; at κ opioid receptor (cloned human κ receptor, agonist U69,593, [35S]GTPγS binding, read-out: κ, U69,593 Ke), 1.81 ± 0.27 nM. The “δ/κ (selectivity for κ relative to δ)” value at κ opioid receptor was determined as 1066. The “μ/κ (selectivity for κ relative to μ)” value on κ opioid receptor was 0.62.

For `CC1CCN(C[C@@H](NC(=O)C2CCc3cc(O)ccc3C2)C(C)C)CC1` (stereo partly drawn) [Compound 65, 6-Hydroxy-N-{(1S)-2-methyl-1-[(4-methylpiperidine-1-yl)methyl]propyl}-1,2,3,4-tetrahydronaphthalene-2-carboxamide], on δ opioid receptor, the Kb was above 3000 nM. Besides, on κ opioid receptor, the “δ/κ (selectivity for κ relative to δ)” value is recorded as above 270 and the “μ/κ (selectivity for κ relative to μ)” value turned out to be 14.

Turning to `CC(C)[C@@H](CN1CCCCC1=O)NC(=O)[C@H]1Cc2ccc(O)cc2CN1` [Compound 34, (3R)-7-Hydroxy-N-{(1S)-2-methyl-1-[(2-oxopiperidin-1-yl)methyl]propyl}-1,2,3,4-tetrahydroisoquinoline-3-carboxamide], the figures for the Kb at μ opioid receptor and on δ opioid receptor were 916 ± 130 nM and above 3000 nM, respectively.

In the case of `CC(C)[C@@H](CN1CC[C@@](C)(c2cccc(O)c2)[C@@H](C)C1)NC(=O)[C@H]1Cc2ccc(O)cc2CN1` [JDTic, (3R)-7-Hydroxy-N-[(1S)-1-{[(3R,4R)-4-(3-hydroxyphenyl)-3,4-dimethyl-1-piperidinyl]methyl}-2-methylpropyl]-1,2,3,4-tetrahydro-3-isoquinolinecarboxamide, reference compound], on δ opioid receptor, the Kb amounted to 74 ± 2 nM.

As to `CC(C)[C@@H](CC1CCCCC1)NC(=O)[C@H]1Cc2ccc(C(N)=O)cc2CN1` [Compound 38, (3R)—N^3-[(1R)-1-(Cyclohexylmethyl)-2-methylpropyl]-1,2,3,4-tetrahydroisoquinoline-3,7-dicarboxamide], the Kb at μ opioid receptor came to 178 ± 47 nM; at δ opioid receptor it was 1220 ± 160 nM.
